Test: Accelerated stability study (Form A): temperature, humidity, light
Assay type: physicochemical
Description: The exceptional stability of the Form A polymorph of Ib was confirmed in a long-term accelerated stability study to evaluate the effect of temperature, humidity, and light on the quality of the drug substance with time. Stability samples were evaluated for appearance, water content, chemical stability using an HPLC method and physical stability using DSC, specific rotation and x-ray powder diffraction methods. Photochemical stability was assessed by comparison with a control sample that was wrapped in aluminum foil and set side by side with the light sample in the light chamber. Results of the study are contained in Table 2
DSC Thermograms were collected using a 2920 Modulated DSC from Thermal Analyzer (TA) Instruments. The heating rate was 10° C./min with a nitrogen purge maintained throughout the run.
HPLC grade deionized water obtained from Milli-Q Water Purification System (Millipore Corp., Milford Mass.), HPLC grade acetonitrile (Burdick Jackson Lab, Inc., Muskegon, Mich.), -Heptane sulfonic acid sodium salt, monohydrate (Fluka), Phosphoric acid, 85% (Mallinckrodt, Sigma, or Fluka), and Hydrochloric Acid, 1 N (J. T. Baker) were used to prepared mobile phase and dilution solvent.
Chromatography was carried out on a Zorbax SB-CN, 4.6×150 mm, 3.5 μm column. A ternary solvent gradient was used comprised of (A) water, (B) acetonitrile and (C) 200 mM heptane sulfonic acid sodium salt, monohydrate with 1% phosphoric acid in water. To prepare 500 mL of the solution, dissolve 22.0 g of 1-heptane sulfonic acid sodium salt, monohydrate in about 400 mL of water. Add 5 mL of phosphoric acid, 85% and then dilute to a volume of 500 mL with water and mix thoroughly. A flow rate of 1.0 mL/m was used. The column was run isocratically with 90% A and 10% C for 5 m. A linear gradient to 20% A, 70% B and 10% C was run over 20 m. This mixture was run isocratically for an addition 5 m after which the solvent was ramped back to 90% A and […] over 2 m followed by 8 m to reequilibrate the column. The column was maintained at 40° C. The retention time of Ib was approximately 11 m.

[1] = Light Control (wrapped in aluminum foil), ICH Q1B

**Q.** Which “% Water” value (2–8° C., 3 months) does the source give for “2-(S)-amino-3-methyl-butyric acid 5S-(3-carbamoyl-[1,2,4]triazol-1-yl)-3R,4S-dihydroxy-tetrahydrofuran-2S-yl methyl ester, monohydrochloride [Form A]” here?
**A.** 2.60%

**Q.** And the “DSC Onset temp” value (2–8° C., 3 months)?
**A.** 159.90 °C

**Q.** And the “Specific Rotation” value (2–8° C., 3 months)?
**A.** 8.0

**Q.** What about the “% Water” value (2–8° C., 4 weeks) of the same substance?
**A.** 2.56%

**Q.** What about the “DSC Onset temp” value (2–8° C., 4 weeks) of the same substance?
**A.** 163.17 °C

**Q.** And the “Specific Rotation” value (2–8° C., 4 weeks)?
**A.** 8.5

**Q.** And the “% Water” value (25° C. 60% RH, 3 months)?
**A.** 2.63%

**Q.** And the “DSC Onset temp” value (25° C. 60% RH, 3 months)?
**A.** 159.28 °C

**Q.** What about the “Specific Rotation” value (25° C. 60% RH, 3 months) of the same substance?
**A.** 6.4

**Q.** What about the “% Water” value (25° C. 60% RH, 4 weeks) of the same substance?
**A.** 2.33%

**Q.** And the “DSC Onset temp” value (25° C. 60% RH, 4 weeks)?
**A.** 162.99 °C

**Q.** And the “Specific Rotation” value (25° C. 60% RH, 4 weeks)?
**A.** 7.6

**Q.** And the “% Water” value (30° C. 60% RH, 3 months)?
**A.** 2.51%

**Q.** What about the “DSC Onset temp” value (30° C. 60% RH, 3 months) of the same substance?
**A.** 161.55 °C

**Q.** And the “Specific Rotation” value (30° C. 60% RH, 3 months)?
**A.** 7.1

**Q.** And the “% Water” value (30° C. 60% RH, 4 weeks)?
**A.** 2.49%

**Q.** What about the “DSC Onset temp” value (30° C. 60% RH, 4 weeks) of the same substance?
**A.** 163.78 °C

**Q.** And the “Specific Rotation” value (30° C. 60% RH, 4 weeks)?
**A.** 8.0

**Q.** And the “% Water” value (40° C. 75% RH, 3 months)?
**A.** 2.63%

**Q.** And the “DSC Onset temp” value (40° C. 75% RH, 3 months)?
**A.** 160.06 °C

**Q.** What about the “Specific Rotation” value (40° C. 75% RH, 3 months) of the same substance?
**A.** 7.3

**Q.** What about the “% Water” value (40° C. 75% RH, 4 weeks) of the same substance?
**A.** 2.50%

**Q.** And the “DSC Onset temp” value (40° C. 75% RH, 4 weeks)?
**A.** 161.90 °C

**Q.** What about the “Specific Rotation” value (40° C. 75% RH, 4 weeks) of the same substance?
**A.** 8.7

**Q.** And the “% Water” value (60° C., 3 months)?
**A.** 2.63%

**Q.** And the “DSC Onset temp” value (60° C., 3 months)?
**A.** 159.80 °C

**Q.** And the “Specific Rotation” value (60° C., 3 months)?
**A.** 7.4

**Q.** And the “% Water” value (60° C., 4 weeks)?
**A.** 2.52%

**Q.** And the “DSC Onset temp” value (60° C., 4 weeks)?
**A.** 160.47 °C

**Q.** And the “Specific Rotation” value (60° C., 4 weeks)?
**A.** 6.9

**Q.** What about the “% Water” value [1] of the same substance?
**A.** 2.48%

**Q.** What about the “DSC Onset temp” value [1] of the same substance?
**A.** 159.38 °C

**Q.** And the “Specific Rotation” value [1]?
**A.** 7.0

**Q.** And the “% Water” value (Light, ICH Q1B)?
**A.** 2.52%

**Q.** And the “DSC Onset temp” value (Light, ICH Q1B)?
**A.** 161.88 °C

**Q.** And the “Specific Rotation” value (Light, ICH Q1B)?
**A.** 7.1

**Q.** What about the “% Water” value (RT, Initial) of the same substance?
**A.** 2.25%

**Q.** What about the “DSC Onset temp” value (RT, Initial) of the same substance?
**A.** 159.0 °C

**Q.** And the “Specific Rotation” value (RT, Initial)?
**A.** 6.3

Reference: US7393839B2, “Polymorphic antiviral nucleoside compounds” (Roche Palo Alto LLC, priority 2003, dated 2008)
